Measured values reported in US6534546B1 (Chugai Seiyaku Kabushiki Kaisha, priority 1994, dated 2003).

Target: T1, E-cNOS (Type 3) (Bos taurus, UniProt P29473)
T1 construct: the resulting supernatant was used as the crude enzyme sample of E-cNOS; endogenous in cells; host or cells: CPAE (cow pulmonary arterial endothelium cells), 1% Triton X-100 extract, 100,000 x g supernatant
Assay: biochemical

IC50: 490 nM
SMILES: CNC(=N)NCCC[C@H](N)C(=O)O [L-NMMA, N^G-monomethyl-L-arginine, reference compound]
